According to PubChem BioAssay AID1996:
≈ marks a conversion by molar mass, not a printed value.

conditions: buffer; pH 7.4; 200.0 µM

Going from `O=P(Nc1nccs1)(c1ccccc1)c1nc2ccccc2s1` (stereo unspecified) to `CC(NC(=O)COC(=O)C(O)(c1ccccc1)c1ccccc1)c1ccccc1` (stereo unspecified), the solubility kinetic falls from 20.7 µg/mL (≈ 57.9 µM) to 10.6 µg/mL (≈ 27.2 µM) (2-fold).

Compared with `O=[N+]([O-])c1ncn(CCn2ncnc2[N+](=O)[O-])n1`, `NC(=O)c1cc([N+](=O)[O-])cc([N+](=O)[O-])c1N` is lower in solubility kinetic: greater than 38.1 µg/mL for the first, 11.7 µg/mL (≈ 51.7 µM) for the second.

`O=C(OC1CN2CCC1CC2)c1ccccc1` (stereo unspecified) and `Cc1ccc(C(=O)OC2CN3CCC2CC3)cc1` (stereo unspecified) are within 1.5-fold of each other in solubility kinetic: 31.5 µg/mL (≈ 136 µM) for the first, 33 µg/mL (≈ 135 µM) for the second.

First: O=C(OC1CN2CCC1CC2)c1cccc([N+](=O)[O-])c1 (stereo unspecified)
Second: O=C(OC1CN2CCC1CC2)c1ccc([N+](=O)[O-])cc1 (stereo unspecified)
The solubility kinetic of the first is higher: greater than 41.4 µg/mL for the first, 35 µg/mL (≈ 127 µM) for the second.

`O=C(OC1CN2CCC1CC2)c1cccc2[nH]cnc12` (stereo unspecified) and `O=C(OC1CN2CCC1CC2)c1ccc(Cl)cc1` (stereo unspecified) are within 1.5-fold of each other in solubility kinetic: 39.7 µg/mL (≈ 146 µM) for the first, 35.6 µg/mL (≈ 134 µM) for the second.

Compared with `CCC1=CC2Cc3nc4ccc(Cl)cc4c(N)c3C(C1)C2` (stereo unspecified), `COc1ccc(C2=NCC(CBr)S2)cc1` (stereo unspecified) is lower in solubility kinetic: greater than 44.8 µg/mL for the first, 24.7 µg/mL (≈ 86.3 µM) for the second.

`CC(=O)c1ccc(N2CC2c2ccncc2)cc1` (stereo unspecified) and `O=C(Nc1ccncc1[N+](=O)[O-])c1ccc([N+](=O)[O-])cc1[N+](=O)[O-]` cannot be ordered by solubility kinetic: greater than 35.7 µg/mL for the first, greater than 50 µg/mL for the second.

`CCOC(=O)c1ccc(NC(=O)C(C)(CCl)SC)cc1` (stereo unspecified) and `CC(C)(C)C(=O)NC(Sc1ccncn1)C(Cl)(Cl)Cl` (stereo unspecified) cannot be ordered by solubility kinetic: greater than 47.4 µg/mL for the first, greater than 51.4 µg/mL for the second.

`CCNC(=S)/N=C(\N)N[N+](=O)[O-]` and `O=[N+]([O-])c1cccc(NC2=NCC(CBr)S2)c1` (stereo unspecified) cannot be ordered by solubility kinetic: greater than 28.7 µg/mL for the first, 38.9 µg/mL (≈ 123 µM) for the second.

Going from `CN(C)C(=O)Oc1noc2ccccc12` to `Nc1cc(N)c2nonc2c1[N+](=O)[O-]`, the solubility kinetic falls from greater than 30.9 µg/mL to 9.4 µg/mL (≈ 48.2 µM).

`O=[N+]([O-])c1cc([N+](=O)[O-])c(OC2CCCCC2O)c([N+](=O)[O-])c1` (stereo unspecified) gave a solubility kinetic of 48.8 µg/mL (≈ 149 µM).
